These are literature values, as cited in patent US11241410B2, “Method and compound for the treatment of covid-19” (priority 2020, dated 2022).

Molecules are shown by their SMILES.

The data set deals with T1, SARS-CoV-2 main protease (Severe acute respiratory syndrome coronavirus 2, UniProt P0DTD1).
T1 construct: also MProtease (SARS-CoV-2 main protease)
The following applies: auto dock; cited from earlier work.

As to `O=C1CCC(N2C(=O)c3ccccc3C2=O)C(=O)N1` (stereo not drawn) [Thalidomide], the “Dissociation Constant” value is on record as 7.9E−06, the SMINA score is given as −6.3 and the Vina score is reported as −7.0.

`NC(=O)c1ncn([C@@H]2O[C@H](CO)[C@@H](O)[C@H]2O)n1` [Ribavirin]: the “Dissociation Constant” value was 1.6E−05, the SMINA score was −6.6 and the Vina score was −6.3.
